# Antibody variant affinities, Ab-14 light chain, assay B

The measurements come from Li et al. 2023 (doi:10.1038/s41467-023-39022-2) through the FLAb antibody collection.

Target peptide (SARS-CoV-2 spike, HR2 region): PDVDLGDISGINAS

Ab-14 is the parent antibody, in scFv form: VH, then the linker GGGGSGGGGSGGGGS, then VL. The heavy chain is unchanged in all variants.
VH: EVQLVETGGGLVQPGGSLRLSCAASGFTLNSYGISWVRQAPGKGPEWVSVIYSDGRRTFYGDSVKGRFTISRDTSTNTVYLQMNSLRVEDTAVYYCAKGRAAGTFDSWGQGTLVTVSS
VL: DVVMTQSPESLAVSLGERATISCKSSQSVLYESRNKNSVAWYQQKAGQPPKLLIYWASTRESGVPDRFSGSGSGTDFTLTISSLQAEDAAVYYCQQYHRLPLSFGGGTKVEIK

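These sequences belong to a second round, designed from the earlier measurements on random variants of the parent. Their group label is 14L_GP_HC (GP: Gaussian process model; HC: hill climbing; a sequence that several methods proposed may carry one label only). The assay is AlphaSeq: two haploid yeast populations carry antibody and antigen on their surface. The frequency of each diploid, read from paired DNA barcodes, reflects how well the two displayed proteins bind. Each replicate has its own calibration line, from reference interactions of the BCL2 family. Each pool was mated in six replicate cultures.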

Changes read parent residue, position, new residue, counted from the first residue of the VL shown.
Numbers give log10(Kd / nM), so 0 is 1 nM and 3 is 1 µM. Smaller is tighter.
A mean of the replicates is given; it leaves out those without a signal.
Where no diploid with the target was found in that replicate, the entry reads "ND": below detection, most likely a poor binder, though not proof of it.
A sequence measured in both rounds can read differently, since the two assays cover different ranges.
In the paper, a design with two or fewer of six values counts as a poor binder.
Background: pairings of all light chain designs with three empty control strains gave a value in 4% of cases (median 2.64, 5th percentile 1.59). Values in that range, when seen in few replicates, are hard to tell from nonspecific mating. For each scFv, signals with the empty controls are counted beside the result, with their mean in brackets.

changes	replicates, log10 nM	mean, log10 nM	signal with controls
S25V S33D R34G N35T W56N T59S	0.30 0.02 0.04 -0.02 0.06 0.36	0.13	1 of 18 (2.23)
Q27I V29G K36T W56E	0.26 0.13 -0.03 -0.06 -0.03 0.19	0.08	1 of 18 (3.58)
S25F V29Q N35T W56N Q96W	0.38 0.09 0.15 -0.19 0.55 0.31	0.22	0 of 18
S26Y Q27W R34N W56H S62D	0.26 0.06 -0.24 -0.04 -0.06 0.28	0.04	1 of 18 (3.16)
Q27I V29Y Y31G S33Q W56E	0.10 -0.06 -0.02 -0.24 -0.10 0.04	-0.05	0 of 18
S25Q S28E V29G W56D	-0.22 -0.71 -0.44 -0.18 -0.60 0.01	-0.35	1 of 18 (0.77)
S25V S26P S28G W56G	-0.37 -0.41 -0.42 -0.53 -0.49 -0.33	-0.42	1 of 18 (1.86)
S25I V29W L30G W56G	0.69 0.60 0.56 0.54 0.84 0.73	0.66	1 of 18 (1.92)
S25Q Q27T R34V W56D	0.34 0.29 0.51 0.20 0.17 0.37	0.31	1 of 18 (2.21)
S25L S26R V29T K36A W56N	-0.15 -0.52 -0.49 -0.52 -0.38 -0.25	-0.39	3 of 18 (3.12)
Q27I S28G V29Y W56E S62Q	0.14 -0.10 0.07 -0.32 -0.08 0.10	-0.03	0 of 18
K24H S25L Q27W S28W W56N	0.21 0.31 0.12 0.06 0.04 0.28	0.17	0 of 18
S25L V29T E32D R34Q W56N	0.14 -0.39 -0.42 -0.46 -0.42 -0.07	-0.27	0 of 18
R34E W56N E61M	0.12 0.40 0.27 0.12 0.15 0.21	0.21	2 of 18 (2.60)
S26G Q27D S28G W56G	0.05 0.12 0.20 -0.30 -0.05 0.06	0.01	3 of 18 (2.31)
Q27I V29Y R34A W56A	0.74 0.60 0.27 0.21 0.54 0.41	0.46	0 of 18
S25Q Y31Q R34V W56D	0.41 0.29 -0.05 -0.10 0.24 0.44	0.20	0 of 18
Q27I V29E Y31I W56E	0.95 0.33 0.04 0.24 0.27 0.53	0.39	2 of 18 (2.53)
K24H S25Q W56N A57G	0.39 0.04 -0.03 -0.07 -0.02 0.07	0.06	1 of 18 (3.59)
S25M Y31M S33M W56D T59L	0.20 -0.07 -0.37 -0.21 -0.47 -0.10	-0.17	0 of 18
V29G S33D N35V W56G	-0.03 -0.02 -0.08 -0.10 -0.18 0.04	-0.06	2 of 18 (3.27)
K24H Q27P L30P W56N Q96D	0.23 0.27 0.19 -0.08 0.24 0.19	0.18	0 of 18
S25Q W56D S103H	0.70 0.54 0.48 0.68 0.50 0.63	0.59	0 of 18
K24Q S25A V29F W56G	-0.09 0.15 -0.10 -0.20 -0.32 -0.07	-0.10	0 of 18
Q27K V29G W56E	0.08 0.02 0.25 0.18 0.25 0.33	0.18	0 of 18
S25V Y31N W56D	0.38 0.32 0.14 0.05 0.12 0.76	0.29	0 of 18
S25F W56N Q96W	2.76 1.12 1.74 1.61 3.64 2.85	2.29	1 of 18 (2.28)
S25Y S26Y Q27P V29Y W56H R99L	0.28 -0.01 0.08 -0.28 0.07 0.19	0.05	2 of 18 (3.75)
S25W S26L N35D W56H S62D	0.56 0.94 0.51 0.44 0.85 0.88	0.70	0 of 18
K24H Q27P W56Q	0.31 0.27 0.55 0.69 0.32 0.72	0.48	0 of 18
S26L V29Q L30E W56H T59Q S62D	0.22 -0.07 -0.14 -0.17 -0.23 0.08	-0.05	3 of 18 (3.06)
K24S S25L S26M Y31Q W56H T59L S62D	0.66 0.30 0.15 0.27 0.53 0.54	0.41	0 of 18
S25Q Q27K Y31F W56N	-0.04 -0.28 0.01 -0.40 -0.25 -0.07	-0.17	1 of 18 (2.62)
K24N S25A V29W W56G A57G S58N	-0.85 -0.89 -0.94 -1.06 -0.94 -0.75	-0.91	1 of 18 (2.76)
S25V Y31G S33E W56D	0.22 0.05 -0.04 -0.08 0.06 0.12	0.05	3 of 18 (2.69)
S25M S26E S28G L30M W56G T59V	-0.04 -0.31 -0.46 -0.56 -0.39 -0.16	-0.32	1 of 18 (2.65)
S25F V29W W56G T59A S62V	0.37 0.17 -0.10 0.20 -0.11 0.40	0.15	1 of 18 (2.61)
Q27I V29D W56E	0.15 -0.33 -0.35 0.79 0.95 0.25	0.24	0 of 18
V29Y K36T W56E	ND 0.77 ND 2.09 ND 1.57	1.47	0 of 18